This note sets out measurements from PubChem BioAssay AID601 (SRMLSC, 2007).

The list shows a part of the results, in another mix than the full data. Calls of active or inactive are those of the source.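 How the source made its calls: active means viability loss from added drug above about 55%, and viability with drug at most 40%, in both replicates (limit read from the data, passing the limit was not always enough); inconclusive means both conditions met in only one replicate; inactive means neither replicate meets both conditions.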

This assay is described as follows: MRP1 drug-resistance reversers in H69AR cells – cell-based, doxorubicin co-treatment, pilot screen (AID 601). The conditions noted are these: H69AR cells + 2 uM doxorubicin, CellTiter-Glo, 72 h; at 10 µM; stronger effect = higher value.
For the compound `Cc1ccc(C)c(NP(C)(=O)Oc2ccccc2)c1` (stereo not given), the differential viability (reversal) is inactive: 3.86%.
For the compound `CP(=S)(Nn1cnnc1)Oc1ccccc1` (stereo not given), the differential viability (reversal) was inactive: -10%.
Consider `CP(=O)(Nc1ccccn1)Oc1ccccc1` (stereo not given), for which the differential viability (reversal) is inactive: 4.43%.
The figure for `CN(C)CCOC(=O)C(O)(c1ccccc1)C1CCCCC1` (stereo not given) is inactive: 10%; for `CP(=O)(Nc1ccc2c(c1)OCCO2)Oc1ccccc1` (stereo not given) it is inactive: -0.85%.
